Measurements reported in patent publication US5308606A, “Method of treating and/or diagnosing soft tissue tumors” (priority 1991, dated 1994).

Test system: liver
Assay: Liver uptake, scored from images of miniature pigs by 3 investigators
Settings: average score (0-3) of 3 investigators; head 72 hrs, text 24 hour images; one value per pig

O=C([O-])CC(O)(CC(=O)[O-])C(=O)[O-].[67Ga+3] [B]
Liver Uptake (72 hrs): 2.67
